The values that follow come from US9155743B2, “Bicyclic heterocycle compounds and their uses in therapy” (priority 2011, dated 2015).

pEC50, pIC50: −log10 of the molar value. Structures can show the parent of a compound that is named as a salt. Where two headings read alike, the source gives them in different places. A value given as a limit tells only on which side of the number the result lay.

Assay [1] deals with cIAP-1 BIR3 domain (Homo sapiens (Human), UniProt Q13490). Description: cIAP-1 in vitro competitive displacement binding assay (fluorescence polarization). The following applies: AbuRPFK(5&6FAM)-amide probe (Probe B); given as ranges; read-out: IC50 or PI cIAP1.
Assay [2] has as its system XIAP or cIAP1. Description: Assays using XIAP and cIAP1 (result stated for XIAP or cIAP1). In kind it is binding, human.
The test system of assay [3] is EVSA-T (human breast carcinoma). Kind of assay: Anti-proliferative activity, Alamar Blue assay, EVSA-T. In kind it is cell-based. In general terms: The colour change of resazurin is a common sign of viable cells or microbes.
Where [4] appears, read: read-out: IC50 or at least 50% inhibition of the activity at a concentration of 1 μM.
Setting [5] is: read-out: IC50 or at least 50% inhibition of the activity at a concentration of 10 μM.
Setting [6] is: 72 h, read-out: EC50 or PI EVSA-T prolif.
[7] abbreviates: read-out: EC50 or greater than 50% at 10 μM.

Turning to `CCC1(CC)Oc2nc(NC(=O)[C@H](C)NC)ccc2N(c2ccc(Cl)cc2)C1=O` [Example 5, (S)—N-[1-(4-Chloro-phenyl)-3,3-diethyl-2-oxo-2,3-dihydro-1H-pyrido[2,3-b][1,4]oxazin-6-yl]-2-methylamino-propionamide hydrochloride], the pIC50 in assay [1] is 6.00 to 8.00; in assay [2] (setting [4]), above 6.00; in assay [2] (setting [5]) it was above 5.00.

A word on the pEC50: it is the EC50 on a negative log10 scale, so that one unit is a factor of ten. Consider `CN[C@@H](C)C(=O)Nc1ccc2c(n1)OC(C)(C)C(=O)N2c1cccc(Cl)c1` [Example 10, (S)—N-[1-(3-Chloro-phenyl)-3,3-dimethyl-2-oxo-2,3-dihydro-1H-pyrido[2,3-b][1,4]oxazin-6-yl]-2-methylamino-propionamide hydrochloride], for which the pEC50 in assay [3] (setting [6]) was 7.04; in assay [3] (setting [7]) it was above 5.00.

On to `CN[C@@H](C)C(=O)Nc1ccc2c(n1)OC(C)(Cc1ccccc1)C(=O)N2c1cccc(Cl)c1` (stereo partly drawn) [Example 11, (S)-N-[3-Benzyl-1-(3-chloro-phenyl)-3-methyl-2-oxo-2,3-dihydro-1H-pyrido[2,3-b][1,4]oxazin-6-yl]-2-methylamino-propionamide hydrochloride], for which the pEC50 was 6.96 in assay [3] (setting [6]) and above 5.00 in assay [3] (setting [7]).

As for `CN[C@@H](C)C(=O)Nc1ccc2c(n1)OC(C)(CC(C)C)C(=O)N2c1cccc(Cl)c1` (stereo partly drawn) [Example 12, (S)—N-[1-(3-Chloro-phenyl)-3-isobutyl-3-methyl-2-oxo-2,3-dihydro-1H-pyrido[2,3-b][1,4]oxazin-6-yl]-2-methylamino-propionamide], the pEC50 in assay [3] (setting [6]) is 6.96; in assay [3] (setting [7]) it was above 5.00.

With `CN[C@@H](C)C(=O)Nc1ccc2c(n1)OC(C)(CCC(C)C)C(=O)N2c1ccccc1` (stereo partly drawn) [Example 14, (S)-2-Methylamino-N-[3-methyl-3-(3-methyl-butyl)-2-oxo-1-phenyl-2,3-dihydro-1H-pyrido[2,3-b][1,4]oxazin-6-yl]-propionamide hydrochloride], the pIC50 in assay [2] (setting [4]) was above 6.00; in assay [2] (setting [5]) it was above 5.00.

For the compound `CN[C@@H](C)C(=O)Nc1ccc2c(n1)CN(Cc1ccccc1)C(=O)N2c1ccccc1` [Example 18, (S)—N-(3-Benzyl-2-oxo-1-phenyl-1,2,3,4-tetrahydro-pyrido[3,2-d]pyrimidin-6-yl)-2-methylamino-propionamide hydrochloride], the pEC50 in assay [3] (setting [6]) is 6.07.

For `CN[C@@H](C)C(=O)Nc1ccc2c(n1)CNC(=O)N2c1ccccc1` [Example 19, (S)-2-Methylamino-N-(2-oxo-1-phenyl-1,2,3,4-tetrahydro-pyrido[3,2-d]pyrimidin-6-yl)-propionamide hydrochloride], the negative-log EC50 (pEC50) in assay [3] (setting [6]) is 5.52.

For the compound `CN[C@@H](C)C(=O)Nc1ccc2c(n1)CN(c1ccc(Cl)cc1)C(=O)N2c1ccc(Cl)cc1` [Example 21, (S)—N-[1,3-Bis-(4-chloro-phenyl)-2-oxo-1,2,3,4-tetrahydro-pyrido[3,2-d]pyrimidin-6-yl]-2-methylamino-propionamide hydrochloride], the pEC50 in assay [3] (setting [6]) is 6.04; in assay [3] (setting [7]), above 5.00.

As for `CN[C@@H](C)C(=O)Nc1ccc2c(n1)CNC(=O)N2c1ccc(Cl)cc1` [Example 22, (S)—N-[1-(4-Chloro-phenyl)-2-oxo-1,2,3,4-tetrahydro-pyrido[3,2-d]pyrimidin-6-yl]-2-methylamino-propionamide hydrochloride], the values for the pEC50 in assay [3] (setting [6]) and in assay [3] (setting [7]) were 6.16 and above 5.00, respectively.

For the compound `CN[C@@H](C)C(=O)Nc1ccc2c(n1)CN(c1ccccc1)C(=O)N2c1ccccc1` [Example 23, (S)-2-Methylamino-N-(2-oxo-1,3-diphenyl-1,2,3,4-tetrahydro-pyrido[3,2-d]pyrimidin-6-yl)-propionamide hydrochloride], the values for the negative logarithm of the EC50 (pEC50) in assay [3] (setting [6]) and in assay [3] (setting [7]) were 5.85 and above 5.00, respectively.

Turning to `CN[C@@H](C)C(=O)Nc1ccc2c(n1)CN(C)C(=O)N2c1ccc(Cl)cc1` [Example 26, (S)—N-[1-(4-Chloro-phenyl)-3-methyl-2-oxo-1,2,3,4-tetrahydro-pyrido[3,2-d]pyrimidin-6-yl]-2-methylamino-propionamide hydrochloride], the pEC50 in assay [3] (setting [6]) is 5.80; in assay [3] (setting [7]), above 5.00.

With `CN[C@@H](C)C(=O)Nc1ccc2c(n1)CN(c1cc(Cl)ccc1F)C(=O)N2c1ccccc1` [Example 27, (S)—N-[3-(5-Chloro-2-fluoro-phenyl)-2-oxo-1-phenyl-1,2,3,4-tetrahydro-pyrido[3,2-d]pyrimidin-6-yl]-2-methylamino-propionamide hydrochloride], the pEC50 in assay [3] (setting [6]) is 5.92; in assay [3] (setting [7]) it was above 5.00.

For the compound `CCCN1Cc2nc(NC(=O)[C@H](C)NC)ccc2N(c2ccccc2)C1=O` [Example 28, (S)-2-Methylamino-N-(2-oxo-1-phenyl-3-propyl-1,2,3,4-tetrahydro-pyrido[3,2-d]pyrimidin-6-yl)-propionamide hydrochloride], the negative-log EC50 (pEC50) is 5.66 in assay [3] (setting [6]) and above 5.00 in assay [3] (setting [7]).

As for `CN[C@@H](C)C(=O)Nc1ccc2c(n1)CN(C1CCCCC1)C(=O)N2c1ccc(Cl)cc1` [Example 29, (S)—N-[1-(4-Chloro-phenyl)-3-cyclohexyl-2-oxo-1,2,3,4-tetrahydro-pyrido[3,2-d]pyrimidin-6-yl]-2-methylamino-propionamide hydrochloride], the pEC50 was 6.47 in assay [3] (setting [6]) and above 5.00 in assay [3] (setting [7]).

Consider `CN[C@@H](C)C(=O)Nc1ccc2c(n1)CN(C1CCCC1)C(=O)N2c1ccc(Cl)cc1` [Example 30, (S)-N-[1-(4-Chloro-phenyl)-3-cyclopentyl-2-oxo-1,2,3,4-tetrahydro-pyrido[3,2-d]pyrimidin-6-yl]-2-methylamino-propionamide hydrochloride], for which the pEC50 in assay [3] (setting [6]) was 6.41; in assay [3] (setting [7]), above 5.00.

Regarding `CN[C@@H](C)C(=O)Nc1ccc2c(n1)CN(C(C)C)C(=O)N2c1ccc(Cl)cc1` [Example 31, (S)-N-[1-(4-Chloro-phenyl)-3-isopropyl-2-oxo-1,2,3,4-tetrahydro-pyrido[3,2-d]pyrimidin-6-yl]-2-methylamino-propionamide hydrochloride], the results for the negative-log EC50 (pEC50) in assay [3] (setting [6]) and in assay [3] (setting [7]) were 6.31 and above 5.00, respectively.

Take `CN[C@@H](C)C(=O)Nc1ccc2c(n1)CN(C(C)C)C(=O)N2c1cccc(Cl)c1` [Example 32, (S)-N-[1-(3-Chloro-phenyl)-3-isopropyl-2-oxo-1,2,3,4-tetrahydro-pyrido[3,2-d]pyrimidin-6-yl]-2-methylamino-propionamide hydrochloride]: the values for the negative logarithm of the EC50 (pEC50) in assay [3] (setting [6]) and in assay [3] (setting [7]) were 5.80 and above 5.00, respectively.

For the compound `CN[C@@H](C)C(=O)Nc1ccc2c(n1)CN(C(C)CC(C)C)C(=O)N2c1ccc(Cl)cc1` (stereo partly drawn) [Example 34, (S)-N-[1-(4-Chloro-phenyl)-3-(1,3-dimethyl-butyl)-2-oxo-1,2,3,4-tetrahydro-pyrido[3,2-d]pyrimidin-6-yl]-2-methylamino-propionamide hydrochloride], the pEC50 in assay [3] (setting [6]) is 6.62; in assay [3] (setting [7]), above 5.00.

On to `CN[C@@H](C)C(=O)Nc1ccc2c(n1)CN(C(C)CC(C)(C)C)C(=O)N2c1cccc(Cl)c1` (stereo partly drawn) [Example 39, (S)-N-[1-(3-Chloro-phenyl)-2-oxo-3-(1,3,3-trimethyl-butyl)-1,2,3,4-tetrahydro-pyrido[3,2-d]pyrimidin-6-yl]-2-methylamino-propionamide], for which the pEC50 was 6.00 in assay [3] (setting [6]) and above 5.00 in assay [3] (setting [7]).

Take `CN[C@@H](C)C(=O)Nc1ccc2c(n1)CN(CCc1ccccc1)C(=O)N2c1ccc(Cl)cc1` [Example 41, (S)—N-[1-(4-Chloro-phenyl)-2-oxo-3-phenethyl-1,2,3,4-tetrahydro-pyrido[3,2-d]pyrimidin-6-yl]-2-methylamino-propionamide hydrochloride]: the values for the pEC50 in assay [3] (setting [6]) and in assay [3] (setting [7]) were 5.60 and above 5.00, respectively.
